Data on 3 molecules can be found in patent US20070037862A1, “Thiazolidinones, their production and use as pharmaceutical agents” (priority 2003, published 2007).

The chains behind the UniProt entries cited, without tags or fusion partners.
UniProt P53350, whole entry: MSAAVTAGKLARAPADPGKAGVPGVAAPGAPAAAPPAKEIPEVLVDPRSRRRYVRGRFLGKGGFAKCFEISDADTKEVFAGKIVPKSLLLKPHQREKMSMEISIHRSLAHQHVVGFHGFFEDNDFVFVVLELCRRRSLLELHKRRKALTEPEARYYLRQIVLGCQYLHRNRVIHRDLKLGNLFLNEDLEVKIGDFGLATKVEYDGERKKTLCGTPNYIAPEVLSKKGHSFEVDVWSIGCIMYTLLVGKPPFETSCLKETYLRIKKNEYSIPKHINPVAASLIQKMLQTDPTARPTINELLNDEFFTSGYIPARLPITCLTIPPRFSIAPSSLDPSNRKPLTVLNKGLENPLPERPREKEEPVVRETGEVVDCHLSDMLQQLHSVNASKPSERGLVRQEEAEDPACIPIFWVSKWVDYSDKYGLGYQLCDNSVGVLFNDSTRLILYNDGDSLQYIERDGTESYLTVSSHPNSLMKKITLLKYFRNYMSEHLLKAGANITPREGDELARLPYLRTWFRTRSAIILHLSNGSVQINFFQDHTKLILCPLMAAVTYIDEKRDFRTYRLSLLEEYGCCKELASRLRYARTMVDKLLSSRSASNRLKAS

Like-named read-outs stand apart in the source and are kept apart here.

For this assay, the target named is T1, Recombinant human Plk-1 (6×His) (Homo sapiens, UniProt P53350).
T1 construct: 6xHis; made in house; host or cells: baculovirus-infected Hi5 insect cells
Nature of the assay: PLK enzyme assay. It counts as biochemical. The method, then:
Recombinant human Plk-1 (6×His) was purified from baculovirus-infected insect cells (Hi5).
10 ng of (produced in a recombinant manner and purified) PLK enzyme is incubated for 90 minutes at room temperature with biotinylated casein and 33P-γ-ATP as a substrate in a volume of 15 μl in 384-well Greiner small-volume microtiter plates (final concentrations in the buffer: 660 ng/ml of PLK; 0.7 μmol of casein, 0.5 μmol of ATP incl. 400 nCi/ml of 33P-γ-ATP; 10 mmol of MgCl2, 1 mmol of MnCl2; 0.01% NP40; 1 mmol of DTT, protease inhibitors; 0.1 mmol of Na2VO3 in 50 mmol of HEPES, pH 7.5). To complete the reaction, 5 μl of stop solution (500 μmol of ATP; 500 mmol of EDTA; 1% Triton X100; 100 mg/ml of streptavidin-coated SPA beads in PBS) is added. After the microtiter plate is sealed by film, the beads are sedimented by centrifuging (10 minutes, 1500 rpm). The incorporation of 33P-γ-ATP in casein is intended as a measurement of enzyme activity by β-counting.
Test substances are used in various concentrations (0 μmol, as well as in the range of 0.01-30 ∥mol). The final concentration of the solvent dimethyl sulfoxide is 1.5% in all batches.

Regarding `CCOC(=O)C(C#N)=c1sc(=CNc2ccc(C(C)=O)cc2)c(=O)n1CC` (mixture of isomers) [Example 132], the IC50 (Table 3, Esters, read-out: Inhibition of Plk-1 IC50) amounted to 81 nM.

With `CCOC(=O)C(C#N)=c1sc(=CNc2cccc(C)c2)c(=O)n1CC` [Example 7], the IC50 worked out at 46 nM.

`CCN(CC)CCNC(=O)c1c[nH]c2ccc(NC=c3s/c(=C(/C#N)C(=O)NCC(F)(F)F)n(CC)c3=O)cc12` [Example 330]: the IC50 is 41 nM.

What is called IC50 is the point on the concentration scale where inhibition reaches its midpoint.
